The nature of series [1]: Repeat dosing toxicity study: hematologic parameters. The following applies: female CD1 mice, Up284 20 mg/kg, Bortezomib 1 mg/kg.
The conditions of series [2]: mouse, in vivo.

“And” between values parts separate entries of the source, which are not always exact repeats. Identical values can stand only once. Like-named read-outs stand apart in the source and are kept apart here.

This note sets out measurements from paper PMC10266688 (PLOS ONE, 2023).

Take `N#Cc1ccc(/C=C2/C(=O)/C(=C/c3ccc(C#N)cc3)C23CCNCC3)cc1` [Up284]: the MPV in series [1] (group Mean) and in series [1] (individual mice) was 5.40 fL in each case. In addition, the WBC was 3.60 10^9/L in series [1] (group Mean); 3.80 10^9/L and 2.20 10^9/L in series [1] (individual mice); 3.40 10^9/L in series [2] (po, 200 mg/kg). Besides, the “MID, %” value in series [2] (ip, 40 mg/kg) is listed as 5.43%.
